≈ marks a conversion by molar mass, not a printed value.
Tests used:
Assay type in all cases: physicochemical
[1] = Thermodynamic solubility study (37° C., 4 hours); conditions: thermodynamic from solid, footnote ** 24 hours, read-out: Thermodynamic sol.
Protocol: Thermodynamic Solubility Study (37° C., 4 Hours)
The resulted mixtures/oversaturated solutions are shaken at 37° C. for 4 hrs (to the solution equilibrium) and are filtrated on a Millipore MultiSreen Filter Plate (0.45 μm). Concentrations of the filtrates are determined by LC/UV/MS based on a 5-point calibration. (When the solid material dissolved totally in the aqueous test medium the result should be considered as a minimal value.) Results are shown in Table 2.

[2] = Thermodynamic solubility study (RT, 24 hours); conditions: aqueous buffer, thermodynamic from solid, PBS pH = 7.4, 24 hours, read-out: Thermodynamic sol.
Protocol: Concentrations of the filtrates were determined by LC/UV/MS based on a 5-point calibration. (When the solid material dissolved totally in the aqueous test medium the result should be considered as a minimal value.) Results are shown in Table 2.

Kinetic solubility study = conditions: PBS pH 7.4 with 1% DMSO, aqueous buffer, kinetic from dmso stock; PBS pH = 7.4, 2 hours, RT, 1% DMSO co-solvent; read-out: Kinetic sol.
Protocol: Following shaking of the suspension on an orbital shaker at 300 rpm for 2 hours, the suspension was clarified by vacuum filtration (Multiscreen® Vacuum Manifold; MilliporeSigma). Immediately following the filtration step, […] of the filtrate was transferred into […] of acetonitrile to avoid compound precipitation from the saturated solution. The concentration of the research compound was determined by HPLC-UV-(MS) detection, by using an external standard made from the same batch of research compound.

- solubility thermodynamic at 24 h ([1]; aqueous buffer, PBS pH = 7.4, 37° C. column): 0.3 ± 0.1 µM (≈ 0.124 µg/mL)
- solubility thermodynamic at 24 h ([1]; fassgf or other biorelevant, SIF pH = 6.8, 37° C. column): 1.9 ± 0.2 µM (≈ 0.785 µg/mL)
- solubility thermodynamic at 24 h [2]: 0.6 ± 0.1 µM (≈ 0.248 µg/mL)
- solubility kinetic at 2 h (Kinetic solubility study): 0.9 ± 0.1 µM (≈ 0.372 µg/mL)
Compound: CNC(=O)N[C@H]1CC[C@H](CCN2CCN(c3cccc(Cl)c3Cl)CC2)CC1 [Ref. Ex. 3, N′-[(1r,4r)-4-{2-[4-(2,3-dichlorophenyl)piperazin-1-yl]ethyl}cyclohexyl]-N-methylurea, reference compound]

— US12168007B1, “Substituted piperazines as dopamine D3/D2 receptor modulators” (Richter Gedeon Nyrt, priority 2023, dated 2024)
